Among the data in PMC11903679 are apparent refolding yield (%) and nanoDSF melting temperature (Tm) of the refolded peptide/HLA/hβ2m complex values, retold here.

Assay [1] concerns the target HLA-A*02:01/hβ2m (human). In words: in vitro refolding + SEC.
In assay [2] the target is HLA-C*07:02/hβ2m (human). In words: in vitro refolding + SEC.
Assay [3] deals with HLA-B*08:01/hβ2m (human). In words: in vitro refolding + SEC.
Assay [4] concerns the target HLA-A*02:01/hβ2m (human).
The target in assay [5] is HLA-C*07:02/hβ2m (human).
Assay [6] addresses HLA-B*08:01/hβ2m (human).

Take CSP 319–328 ([…]) (peptide): the apparent refolding yield (%) with HLA-A*02:01/hβ2m (human) [1] was 31.3%; with HLA-C*07:02/hβ2m (human) [2] it was 36.9%; in the assay with HLA-B*08:01/hβ2m (human) [3], 58.8%. The values for the nanoDSF melting temperature (Tm) of the refolded peptide/HLA/hβ2m complex with HLA-A*02:01/hβ2m (human) [4], with HLA-C*07:02/hβ2m (human) [5] and with HLA-B*08:01/hβ2m (human) [6] were 61 °C, 61.2 °C and 54.9 °C, respectively.
